Experimental data published in PubChem BioAssay AID602211 (Sanford-Burnham Center for Chemical Genomics, 2012).

Test system: H9c2 cardiomyocytes, H2O2 protection, ATPLite viability, 2 h
Assay: H2O2-induced H9c2 cell death suppression – ATPLite luminescence, set 2, dose response (AID 602211);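 note: potency is for protection so actives keep ATP signal up against peroxide killing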

**Q.** With NC(=O)c1ccsc1NC(=O)c1ccc([N+](=O)[O-])o1 as the compound, how does the IC50 read?
**A.** The IC50 was 2380 nM.
